This passage reports Ki results from patent US20120172339A1, “ANGIOGENIC RESORCINOL DERIVATIVES” (Northeastern University, priority 2009, published 2012).

By UniProt entry, the sequences of proteins in these tests, tags left out.
UniProt P34972, whole entry: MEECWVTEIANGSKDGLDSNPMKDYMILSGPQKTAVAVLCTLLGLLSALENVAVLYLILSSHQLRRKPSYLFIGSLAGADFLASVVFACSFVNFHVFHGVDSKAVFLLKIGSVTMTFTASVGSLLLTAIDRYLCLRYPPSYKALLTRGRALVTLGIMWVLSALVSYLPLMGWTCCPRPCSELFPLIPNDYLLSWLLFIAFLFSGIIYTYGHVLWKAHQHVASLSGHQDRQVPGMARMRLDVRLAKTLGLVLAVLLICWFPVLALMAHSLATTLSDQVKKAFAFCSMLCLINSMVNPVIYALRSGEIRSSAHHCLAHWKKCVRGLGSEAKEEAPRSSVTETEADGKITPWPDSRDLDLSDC

In general, Ki refers to a dissociation constant, usually derived from enzyme kinetics or from competition with a known ligand.

The assay deals with CB2 cannabinoid receptor (Homo sapiens, UniProt P34972). Description: CB2 receptor binding affinity. The method, then:
Some disclosed compounds were tested for CB1 and CB2 receptors binding affinity (Table 5). As used herein “binding affinity” is represented by the Ki value. The Ki value is the affinity constant and describes the affinity of the compound for the receptor. The lower the Ki value, the higher the affinity of the compound for the receptor. A detailed description of the methods used to test “binding affinity” of compounds is given in Makriyannis, et al., US 2007, 0135388 and in Papahatjis, et al. J. Med. Chem. (2007) 4048, the content of each of which is hereby incorporated by reference.

The molecule `C=C(C)[C@@H]1CCC(C)=C[C@H]1c1c(O)cc(CCCCC)cc1O` (relative stereo) [Compound 3.2, (−)-2-[3-3,4-trans-p-Menthadien-(1,8)-yl]-5-pentylresorcinol, reference compound] showed an inhibition constant (Ki) of 286 nM. In other words, the sub-micromolar range.
